Tests used:
Type in all cases: cell-based
[1] = target: T1, Chemerin-like receptor 2 (Homo sapiens, UniProt P46091); test: Displacement of [K14(TAMRA)]-ChemS157 from Nluc-tagged GPR1 (unknown origin) transfected in HEK293 cells assessed as inhibition constant incubated for 1 hrs by BRET assay
T1 sequence (P46091 whole entry): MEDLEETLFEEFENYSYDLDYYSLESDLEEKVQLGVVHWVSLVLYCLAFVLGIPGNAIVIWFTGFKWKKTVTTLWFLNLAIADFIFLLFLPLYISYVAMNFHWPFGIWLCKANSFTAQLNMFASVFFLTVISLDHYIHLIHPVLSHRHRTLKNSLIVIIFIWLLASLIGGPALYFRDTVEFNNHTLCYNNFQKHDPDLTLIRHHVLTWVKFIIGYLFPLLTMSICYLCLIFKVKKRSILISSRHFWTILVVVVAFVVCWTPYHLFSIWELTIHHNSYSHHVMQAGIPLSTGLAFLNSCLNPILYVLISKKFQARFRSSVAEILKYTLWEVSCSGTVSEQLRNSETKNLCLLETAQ

[2] = target: T2, Chemerin-like receptor 1 (Homo sapiens, UniProt Q99788); test: Displacement of TAMRA-labeled chemerin 9 from Nluc-tagged CMKLR1 (unknown origin) transfected in HEK293 cells assessed as inhibition constant incubated for 1 hrs by BRET assay
T2 sequence (Q99788 whole entry): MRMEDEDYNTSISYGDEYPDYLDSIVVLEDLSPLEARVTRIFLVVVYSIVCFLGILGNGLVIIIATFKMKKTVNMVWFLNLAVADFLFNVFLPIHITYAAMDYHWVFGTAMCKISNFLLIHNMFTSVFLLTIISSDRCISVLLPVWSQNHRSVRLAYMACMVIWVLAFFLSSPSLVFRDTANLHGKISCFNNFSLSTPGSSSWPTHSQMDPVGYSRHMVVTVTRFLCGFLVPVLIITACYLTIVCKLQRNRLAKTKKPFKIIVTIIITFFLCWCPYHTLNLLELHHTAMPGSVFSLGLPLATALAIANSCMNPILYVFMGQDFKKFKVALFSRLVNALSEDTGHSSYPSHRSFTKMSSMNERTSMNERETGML

[3] = target: T2, Chemerin-like receptor 1; test: Displacement of [K14(TAMRA)]-ChemS157 from Nluc-tagged CMKLR1 (unknown origin) transfected in HEK293 cells assessed as inhibition constant incubated for 1 hrs by BRET assay

Measured: Ki

COc1ccc(C)cc1NC(=O)CSc1nc(=O)c(S(=O)(=O)c2ccc(C)c(Cl)c2)c[nH]1
Not_determined: all assays above

Source: ChEMBL document CHEMBL6178011, “Similar Binding Mode of a 5-Sulfonylthiouracil Derivative Antagonist at Chemerin Receptors CMKLR1 and GPR1” (J Med Chem, 2025)
